Experimental data reported in patent US10617705B1, “Isoquercitrin compositions” (priority 2019, dated 2020).

Experiment: Stability of isoquercitrin (or catechin) in solution with L-arginine and sodium ascorbate at 50° C., by HPLC
Type: physicochemical
Conditions: aqueous solution with L-arginine and sodium ascorbate; for amount of intact compound remaining, of the initial amount in the solution: HPLC
Procedure: An exemplary isoquercitrin/L-arginine mixture was prepared by mixing 0.01 mol isoquercitrin with an aqueous solution containing 0.02 mol L-arginine, heating the mixture to 80° C. until the isoquercitrin dissolved completely, and adding 0.001 mol sodium ascorbate. After cooling, the stability of isoquercitrin was tested by heating the mixture to 50° C. and quantifying by HPLC the amount of intact isoquercitrin remaining after 0 h, 5 h, and 24 h. […] A similar study was performed to assess the stability of a flavonoid related to isoquercitrin, i.e., catechin, after dissolving it with L-arginine and sodium ascorbate. […] It was quite unexpected that only 1.9% of the isoquercitrin degraded after 24 h, as compared to 97.7% of the catechin under identical conditions.

Which “amount of intact compound remaining, of the initial amount in the solution” value (5 h at 50° C.) does the source give for catechin here?
The value was 30.8%.

What about the “amount of intact compound remaining, of the initial amount in the solution” value (24 h at 50° C.) of the same substance?
Its value is 2.3%.

And the compound degraded (after 24 h at 50° C.)?
The compound degraded was 97.7%.
